Measured values as given in patent publication US20090312356A1, “NICOTINIC AGONISTS SELECTIVE FOR THE ALPHA7 RECEPTOR SUBTYPE, THE PROCESS FOR THE PREPARATION THEREOF AND PHARMACEUTICAL COMPOSITIONS THEREFROM” (priority 2006, published 2009).

The chains behind the UniProt entries cited, without tags or fusion partners. Residues count along the entry.
UniProt P17787, 26-502: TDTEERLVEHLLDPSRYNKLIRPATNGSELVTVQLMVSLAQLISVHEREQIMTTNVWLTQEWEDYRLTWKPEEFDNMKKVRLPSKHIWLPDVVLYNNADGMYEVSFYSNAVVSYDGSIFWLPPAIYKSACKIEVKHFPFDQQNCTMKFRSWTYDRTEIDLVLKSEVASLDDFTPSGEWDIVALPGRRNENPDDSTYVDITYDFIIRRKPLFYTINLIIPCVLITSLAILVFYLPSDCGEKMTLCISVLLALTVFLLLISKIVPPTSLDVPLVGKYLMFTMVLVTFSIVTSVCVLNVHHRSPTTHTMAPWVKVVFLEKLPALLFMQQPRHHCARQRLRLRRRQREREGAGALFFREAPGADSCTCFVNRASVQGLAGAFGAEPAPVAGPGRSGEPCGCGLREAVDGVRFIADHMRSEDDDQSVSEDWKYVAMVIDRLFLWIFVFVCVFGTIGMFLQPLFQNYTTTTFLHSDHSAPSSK
UniProt P43681, 29-627 limits assumed: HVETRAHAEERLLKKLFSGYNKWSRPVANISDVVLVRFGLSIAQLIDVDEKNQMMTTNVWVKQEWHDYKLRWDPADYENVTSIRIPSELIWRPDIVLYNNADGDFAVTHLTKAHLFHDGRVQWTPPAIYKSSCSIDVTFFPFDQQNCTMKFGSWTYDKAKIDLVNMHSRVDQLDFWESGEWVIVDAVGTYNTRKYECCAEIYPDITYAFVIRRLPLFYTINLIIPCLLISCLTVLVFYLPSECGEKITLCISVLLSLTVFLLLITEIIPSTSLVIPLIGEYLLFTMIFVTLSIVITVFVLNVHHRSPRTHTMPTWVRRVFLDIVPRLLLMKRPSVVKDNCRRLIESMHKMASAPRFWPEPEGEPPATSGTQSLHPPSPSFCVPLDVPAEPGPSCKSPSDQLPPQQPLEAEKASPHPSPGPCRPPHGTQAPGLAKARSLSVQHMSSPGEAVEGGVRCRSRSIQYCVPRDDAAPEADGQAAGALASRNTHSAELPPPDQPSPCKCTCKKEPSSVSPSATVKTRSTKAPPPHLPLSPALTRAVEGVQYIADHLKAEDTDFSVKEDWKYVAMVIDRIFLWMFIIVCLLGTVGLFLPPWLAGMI

Target: T1, hα4β2 receptor subtype (Homo sapiens, UniProt P17787+P43681)
T1 construct: expressed in transfected cells; host or cells: HEK 293 cells, transient calcium phosphate transfection, equal amounts of both subunit cDNAs
Format: cell-based
Conditions: 1 mM

Q: `CO[C@H]1CC=C2CCN3CCC4=C(CC(=O)OC4)[C@]23C1` [dihydro-β-erythroidine] was tested. Which “effect on acetylcholine-induced hα4β2 current” value did it give?
A: Its value is “blocked”.
